Results taken from patent US10759860B2, “Anti-EGFR antibody and uses of same” (SYNERMORE BIOLOGICS CO., LTD., priority 2014, dated 2020).

Experiments:
colon cancer cell LoVo = test: In vitro growth inhibition, CCK-8; format: cell-based, human; conditions: 48 hours
[1] = tested on: epidermoid carcinoma cell A431; test: In vitro growth inhibition, chemiluminescence (ATPLite); format: cell-based, human; conditions: 96 hr, weaker reaction
[2] = tested on: hypopharyngeal carcinoma cell FaDu; test: as above; format: cell-based, human; conditions: 96 hr, weaker reaction
[3] = tested on: GEO human colon carcinoma xenograft; test: In vivo anti-tumor activity, tumor xenograft; design: species or system BALB/c nude mice
[4] = tested on: breast cancer cell MDA-MB-468; test: In vitro growth inhibition, CCK-8; format: cell-based, human; conditions: 48 hours, most sensitive of the four cell lines

In the case of cetuximab [Erbitux®], the inhibition of proliferation (colon cancer cell LoVo) is reported as “capable of inhibiting the proliferation”, the inhibition of proliferation [1] is reported as “capable of inhibiting the proliferation” and the inhibition of proliferation [2] is reported as “capable of inhibiting the proliferation”. The “tumor suppression, repeat of the second experiment” value ([3]; all doses (LR004 25, 50, 100 mg/kg; Erbitux 100 mg/kg), twice weekly for four weeks) was “complete tumor suppression”, the tumor volume ([3]; i.v. twice weekly, LR004 100-200 mg/kg for three weeks or 25, 50, 100 mg/kg for four weeks, Erbitux 100 mg/kg) was “reduced the tumor volume significantly” and the inhibition of proliferation [4] was “capable of inhibiting the proliferation”.
